# GIV Gai3 FP – inhibitors of GIV GBA-motif binding to rat Galpha-i3; P08753; Galpha-i3/FITC-GIV peptide fluorescence polarization, 90 min; stronger effect = lower value; scaled: aluminum fluoride 0%, vehicle 100%; percent of control (FP), % (no concentration beside the values); actives 0.42% (n = 210,000); AID 1224905;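 active means replicate mean at 85% of control or lower, very high polarization wells dropped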;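 further: wells of about 15 µL received 100 nL stock; the first replicate is given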
# HCMV NEC inh – inhibitors of HCMV UL50-UL53 interaction, biochemical, HTRF. normalized percent inhibition. inhibition, % (test concentration not listed). 190,000 tested, 0.15% active. AID 1918969, 2023; in the data active = inhibition above about 27%, passing the limit was not always enough
# GIV-Gai FP conf – inhibitors of GIV peptide binding to Galpha-i3, confirmation, biochemical, fluorescence polarization, FITC-GIV peptide, rat Galphai3. shares compounds with GIV Gai3 FP. hits give low values. fluorescence polarization, mP at 100 µM. 580 tested, 38% active;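 active = inhibition score of 15 or more, meaning 100 minus mean polarization as percent of control over three replicates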;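 note: lower mP means peptide displaced from Galphai3 so more inhibition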
# GIV-Gai AS conf – inhibitors of GIV binding to Galpha-i3, confirmation, orthogonal assay for GIV-Galpha-i inhibitor project, biochemical, AlphaScreen, His-GIV, GST-Galphai3 | shares compounds with GIV Gai3 FP | purified proteins, 90 min; hits give low values | AlphaScreen counts at 100 µM | 580 tested, 39% active | AID 1259351, 2017;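 active = inhibition score at or above a set limit, where the score is 100 minus the three-replicate mean percent of control signal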
# * = called active by the depositor; / = not tested or not shown. Only some compounds are listed: those with a hit (about 0.46% of all), similar ones and a draw of the others.
SMILES,GIV Gai3 FP,HCMV NEC inh,GIV-Gai FP conf,GIV-Gai AS conf
COc1ccc(CNC(=O)c2c3c(nc4ccccc24)C(=O)N(C2CCCCC2)C3)cc1,100.1,/,/,/
COc1cccc(CNC(=O)c2c3c(nc4ccccc24)C(=O)N(C2CCCCC2)C3)c1,89.4,/,81,34982
CC(C)C(NS(=O)(=O)c1cccs1)C(=O)NCc1cccnc1 (stereo not given),105.5,4.5,/,/
CCCOc1ccc(CNC(=O)C(NS(=O)(=O)c2cccs2)C(C)C)cc1 (stereo not given),84.5*,/,81.8,35946
Cc1oc2c(c1C(=O)N1CCc3ccccc31)C1=NCCN1C=N2,115.4,-10.6,/,/
CC(=O)n1nc(C)c(CS(=O)(=O)c2ccccc2)c1C,107.3,-8.0,/,/
Cc1ccsc1C1C=C(c2cccc(Br)c2)Nc2ncnn21 (stereo not given),80.8*,/,47.3*,49839
CCc1ccc(C2=CC(c3sccc3C)n3ncnc3N2)cc1 (stereo not given),103.7,/,/,/
CC1(C)C=C2C(=NN(c3ccccc3)C(N)=C2C#N)CO1,82.8*,-39.9,66,39806
CCC1(C)Cc2c(C#N)c(N)n(-c3ccccc3)c(=O)c2CO1 (stereo not given),/,-12.0,/,/
CC(NC(=O)c1ccc(CO)cc1)C(=O)O (stereo not given),/,-28.8,/,/
CCOC(=O)c1ccc2nsnc2c1,101.3,-69.4,/,/
COC(=O)c1ccc2nsnc2c1,86.4,/,64.6,37884
CN1CCN(c2nc(C#N)c(C#N)nc2C(C#N)=C2Nc3ccccc3N2)CC1,100.1,-23.7,/,/
CCN1/C(=C(\C#N)c2nc(C#N)c(C#N)nc2N2CCOCC2)Nc2ccccc21,66.5*,-7.0,75.4,32831
Cc1ccc(CNC(=O)c2ccc(Cl)cc2)c(=S)[nH]1,/,-14.9,/,/
N#CCc1ccc(NC(=O)CC2(CC(=O)O)CCCC2)cc1,107.3,-0.7,/,/
CC1=NN(c2ccc(N)cc2)C(=O)C1,95.4,23.7,/,/
CC1=NN(c2ccc3c(S(=O)(=O)O)cc(S(=O)(=O)O)cc3c2)C(=O)C1,51.2*,/,43.3*,4060*
CCc1ccc(C(=O)NC(Cc2c[nH]c3ccccc23)C(=O)OCC(=O)c2ccc(OC)cc2)cc1 (stereo not given),104.5,/,/,/

# Entries of single compounds as entered above. Order of values: GIV Gai3 FP	HCMV NEC inh	GIV-Gai FP conf	GIV-Gai AS conf
# Cc1ccc(CNC(=O)c2ccc(Cl)cc2)c(=S)[nH]1 is entered as /	-14.9	/	/
# CCC1(C)Cc2c(C#N)c(N)n(-c3ccccc3)c(=O)c2CO1 (stereo not given) is entered as /	-12.0	/	/

# The list continues.
SMILES,GIV Gai3 FP,HCMV NEC inh,GIV-Gai FP conf,GIV-Gai AS conf
CCc1ccc(C(=O)NC(Cc2c[nH]c3ccccc23)C(=O)OCC(=O)c2ccccc2)cc1 (stereo not given),84.7*,/,60.6,46081
COc1ccccc1Nc1nc2ccc(C)cc2n2nnnc12,73.9*,-18.6,68.6,51081
CCOC(=O)c1ccccc1Nc1nc2ccc(C)cc2n2nnnc12,106.7,-5.6,/,/
CCN(CC)C(=O)CSc1nc(N)cc(=O)[nH]1,/,-10.6,/,/
CCn1nc(N)c2c(O)[nH]c(=O)cc21,41.0*,/,34.5*,25115*
Cc1[nH]c2cc(C(=O)O)ccc2c1CC(=O)O,105.7,-11.7,/,/
CCN1C(C)=C(C)S/C1=C1\SC(=S)N(C2CCCCC2)C1=O,94.2,-24.2,73,44037
CCN1C(C)=C(C)S/C1=C1\SC(=S)N(NC(C)=O)C1=O,106.3,/,/,/
CCOc1ccc(-c2c(C)nn3c(C)c(C(=O)Nc4ccc(OC)cc4)cnc23)cc1OCC,111.4,-8.8,/,/
COC(=O)c1sccc1N=CC1=C(O)CC(c2cccs2)CC1=O (stereo not given),91.0,4.7,/,/
O=C1N=c2ccccc2=C1N=Nc1c(O)[nH]c2ccccc12,56.5*,-42.0,51.3*,9884*
O=C1CSC(N=Nc2c(O)[nH]c3ccccc23)=N1,110.4,-84.2,/,/
Cc1nn(C)c(C)c1S(=O)(=O)N(Cc1cc(CN2CCOCC2)cs1)c1ccc(F)cc1,104.2,-22.3,/,/
O=c1nc(SCCc2ccccc2)nc2ccccn12,108.1,1.8,/,/
Cc1cc(N2CCOCC2)c(F)cc1C(=O)c1ccccc1,91.8,-23.1,68.4,43945
Cc1ccc(C(=O)c2cc(F)c(N3CCOCC3)cc2Cl)cc1C,104.5,/,/,/
CC1=CC(=Nc2c(C)n(C)n(-c3ccccc3)c2=O)c2ccccc2C1=O,106.8,-23.4,/,/
Cc1c(N=c2c(=O)c3ccccc3c2=O)c(=O)n(-c2ccccc2)n1C,61.9*,/,47.5*,26896
C#CCN1CCc2cc(OC)c(OC)cc2C1C (stereo not given),103.7,10.4,/,/
O=C(O)c1ccc(CSc2n[nH]c(-c3ccco3)n2)cc1,78.4*,5.3,57.5*,2493*
CCOC(=O)CSc1n[nH]c(-c2ccco2)n1,103.7,/,/,/
N#Cc1ccccc1COC(=O)COc1ccccc1C#N,/,-5.7,/,/
O=C(Nc1sc2c(c1C(=O)NCC1CCCO1)CCCC2)c1cc(=O)c2ccccc2o1 (stereo not given),101.0,-15.7,/,/
COC(=O)c1c(NC(=O)c2cc(=O)c3ccccc3o2)sc2c1CCCC2,125.3,-21.3,58.9,43666
CCn1nc(C)c2c1c(=O)n(Cc1ccccc1)c(=O)n2Cc1cc(C)ccc1C,99.1,1.1,/,/
CC1=C(C(=O)OC2CCCCC2)C(c2coc3ccc(Cl)cc3c2=O)C2=C(CCCC2=O)N1 (stereo not given),105.4,-19.9,/,/
CC1=C(C(=O)OC2CCCCC2)C(c2coc3ccc(Cl)cc3c2=O)C2=C(CC(C)(C)CC2=O)N1 (stereo not given),92.3,-10.2,62.7,54497
O=C(O)c1cccn2c(=O)c3cc(Cl)ccc3nc12,106.7,-44.8,/,/
c1n[nH]c(SCc2cn3ccsc3n2)n1,/,-14.8,/,/
O=c1c(=NNc2ccccc2)c(=O)c2ccccc12,111.0,-76.5,/,/
O=c1c(=NNc2nn[nH]n2)c(=O)c2ccccc12,39.8*,-11.5,39.1*,17853*
CCOc1ccccc1N1CCN(C(=O)CSc2nccnc2Oc2ccc(C)cc2)CC1,114.0,/,/,/
CN(C)S(=O)(=O)Nc1cccc(Br)c1,109.0,7.1,/,/
Cc1ccc(COc2ccc(Br)cc2C=C2C(=O)NC(=S)NC2=O)cc1,100.4,8.5,/,/
O=C1NC(=O)C(=Cc2cc(Br)ccc2OCc2ccc(Cl)cc2)C(=O)N1,78.5*,50.3*,62.4,39620
CCC1(C)CC(CCN(Cc2ccccc2)C(C)=O)(c2ccc(OC)cc2)CCO1 (stereo not given),109.4,/,/,/
CCc1nnc(-c2coc(S(=O)(=O)N3CCN(C(C)C)CC3)c2)o1,97.5,/,/,/
Nc1cc(N)c2cc(-c3ccccc3)oc2c1,81.0*,95.2*,66.1,30925
O=c1cc(-c2ccccc2)oc2cc(Cl)ccc12,/,-8.1,/,/
Cc1cc(NC(=O)CSc2ccc3ccccc3c2)no1,/,12.3,/,/

# Rewritten with values under each structure: part of the list above
# Each structure is followed by: GIV Gai3 FP	HCMV NEC inh	GIV-Gai FP conf	GIV-Gai AS conf
> O=C(O)c1ccc(CSc2n[nH]c(-c3ccco3)n2)cc1
  78.4*	5.3	57.5*	2493*
> CCOC(=O)CSc1n[nH]c(-c2ccco2)n1
  103.7	/	/	/
> N#Cc1ccccc1COC(=O)COc1ccccc1C#N
  /	-5.7	/	/
> O=C(Nc1sc2c(c1C(=O)NCC1CCCO1)CCCC2)c1cc(=O)c2ccccc2o1 (stereo not given)
  101.0	-15.7	/	/
> COC(=O)c1c(NC(=O)c2cc(=O)c3ccccc3o2)sc2c1CCCC2
  125.3	-21.3	58.9	43666
> CCn1nc(C)c2c1c(=O)n(Cc1ccccc1)c(=O)n2Cc1cc(C)ccc1C
  99.1	1.1	/	/

# (list continues)
SMILES,GIV Gai3 FP,HCMV NEC inh,GIV-Gai FP conf,GIV-Gai AS conf
Cc1csc(SCC(=O)c2cc(C)n(-c3ccccc3)c2C)n1,/,-14.1,/,/
CCCS(=O)(=O)c1ncc(Cl)c(C(=O)Nc2sc3c(c2C(=O)OCC)CCCC3)n1,75.9*,7.3,62.4,44265
CCOC(=O)c1c(NC(=O)c2nc(S(=O)(=O)CC)ncc2Cl)sc2c1CCCC2,96.9,-1.5,/,/
COCCNC(=O)Cn1cc(S(=O)(=O)N2CCN(c3ccccc3F)CC2)c2ccccc2c1=O,106.1,2.1,/,/

# Source: PubChem BioAssay
